Legend:
5-LO [1] = molecular target: T1, 5-LO (Homo sapiens, UniProt P09917); settings: read-out: IC50 5-LO in intact cells; cited from earlier work
[2] = molecular target: recombinant human 5-LO (r5-LO_WT) (Homo sapiens, UniProt P09917); test: Determination of r5-LO activity (recombinant wild type 5-LO); settings: 3 µg r5-LO_WT, 15 min preincubation on ice, 10 µM AA, 2 mM CaCl2; (95% CI), n = 3–6
5-LO [3] = molecular target: T1, 5-LO; test: 5-LO product formation in intact PMNL; settings: 20 µM AA, 2.5 µM A23187, (95% CI)

Sequences of proteins named here, by UniProt entry; tags and fusion partners are left off. A change or cut given only in a name is not applied to a line headed by its entry.
UniProt P09917: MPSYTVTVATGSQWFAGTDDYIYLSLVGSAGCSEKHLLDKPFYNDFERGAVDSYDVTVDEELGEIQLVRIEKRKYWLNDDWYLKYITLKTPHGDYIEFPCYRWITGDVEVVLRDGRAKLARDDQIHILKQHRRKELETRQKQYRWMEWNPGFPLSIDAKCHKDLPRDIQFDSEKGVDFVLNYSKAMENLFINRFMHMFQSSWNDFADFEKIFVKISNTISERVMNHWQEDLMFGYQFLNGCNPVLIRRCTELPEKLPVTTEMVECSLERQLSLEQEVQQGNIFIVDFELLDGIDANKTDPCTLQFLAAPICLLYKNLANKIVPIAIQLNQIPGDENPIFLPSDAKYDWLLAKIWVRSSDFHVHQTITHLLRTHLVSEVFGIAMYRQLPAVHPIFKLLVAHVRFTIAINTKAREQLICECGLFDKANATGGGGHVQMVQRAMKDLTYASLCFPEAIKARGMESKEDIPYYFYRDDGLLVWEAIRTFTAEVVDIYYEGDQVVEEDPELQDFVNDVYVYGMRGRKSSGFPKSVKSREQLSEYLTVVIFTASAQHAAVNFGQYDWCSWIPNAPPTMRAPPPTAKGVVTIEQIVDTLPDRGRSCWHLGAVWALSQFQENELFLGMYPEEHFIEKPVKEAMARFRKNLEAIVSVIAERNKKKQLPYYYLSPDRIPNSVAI

## 1-[6-[[17-β-3-methoxyestra-1,3,5(10)-trien-17-yl]amino]hexyl]-1 H -pyrrole-2,5-dione
5-LO [1]
  IC50: 10 µM

## COc1ccc(C=C(C#N)C#N)cc1
[2]
  IC50 for inhibition of 5-LO product formation, r5-LO_WT: no inhibition
5-LO [3]; n = 3–6
  IC50 for inhibition of 5-LO product formation, PMNL: no inhibition
5-LO [3]; n = 3–6, listed as tyrphostin A1
  IC50 for inhibition of 5-LO product formation, PMNL: failed to inhibit
